Amino acid sequences for entries named in this document (tags omitted).
UniProt P31751, whole entry: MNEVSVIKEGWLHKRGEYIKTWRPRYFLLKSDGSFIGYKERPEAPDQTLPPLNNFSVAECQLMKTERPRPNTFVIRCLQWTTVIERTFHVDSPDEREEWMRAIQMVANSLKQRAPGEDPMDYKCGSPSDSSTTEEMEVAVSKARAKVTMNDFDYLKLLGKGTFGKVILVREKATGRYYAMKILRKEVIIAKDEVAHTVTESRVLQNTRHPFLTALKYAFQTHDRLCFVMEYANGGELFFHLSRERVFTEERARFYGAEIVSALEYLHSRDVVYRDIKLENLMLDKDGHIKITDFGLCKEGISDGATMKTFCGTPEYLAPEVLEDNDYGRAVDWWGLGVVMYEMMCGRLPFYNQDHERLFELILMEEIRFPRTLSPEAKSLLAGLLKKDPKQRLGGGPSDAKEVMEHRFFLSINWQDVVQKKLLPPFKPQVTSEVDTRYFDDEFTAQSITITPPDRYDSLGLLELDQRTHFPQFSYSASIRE
UniProt Q9Y243, whole entry: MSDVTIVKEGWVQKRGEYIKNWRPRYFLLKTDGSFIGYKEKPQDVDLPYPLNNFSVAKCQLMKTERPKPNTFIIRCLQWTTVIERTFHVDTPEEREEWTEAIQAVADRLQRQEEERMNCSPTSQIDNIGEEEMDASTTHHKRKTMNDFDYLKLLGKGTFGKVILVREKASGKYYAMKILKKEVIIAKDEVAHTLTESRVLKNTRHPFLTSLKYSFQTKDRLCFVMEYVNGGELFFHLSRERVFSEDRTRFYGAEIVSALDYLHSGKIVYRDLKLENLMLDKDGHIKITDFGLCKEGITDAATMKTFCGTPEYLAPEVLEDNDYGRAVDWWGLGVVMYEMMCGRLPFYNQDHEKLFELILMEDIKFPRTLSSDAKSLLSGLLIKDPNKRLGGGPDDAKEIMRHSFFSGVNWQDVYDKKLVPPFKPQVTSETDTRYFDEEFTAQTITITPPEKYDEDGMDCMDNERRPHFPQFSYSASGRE
UniProt P31749, whole entry: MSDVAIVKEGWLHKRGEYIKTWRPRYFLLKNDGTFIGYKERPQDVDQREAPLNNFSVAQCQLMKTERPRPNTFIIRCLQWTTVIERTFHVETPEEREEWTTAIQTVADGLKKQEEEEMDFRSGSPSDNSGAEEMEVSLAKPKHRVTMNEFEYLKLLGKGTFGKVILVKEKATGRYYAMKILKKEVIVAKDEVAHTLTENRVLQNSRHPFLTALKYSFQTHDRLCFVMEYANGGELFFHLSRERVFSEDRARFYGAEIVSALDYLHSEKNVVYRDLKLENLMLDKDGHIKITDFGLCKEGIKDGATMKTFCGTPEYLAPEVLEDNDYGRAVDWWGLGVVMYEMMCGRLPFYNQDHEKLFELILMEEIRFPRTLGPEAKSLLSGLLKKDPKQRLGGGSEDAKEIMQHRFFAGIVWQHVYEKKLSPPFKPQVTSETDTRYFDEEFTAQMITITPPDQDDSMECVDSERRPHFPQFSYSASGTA

In US10654868B2, “Dihydropyrazole azepine compound serving as Akt inhibitor” (HARBIN ZHENBAO PHARMACEUTICAL CO., LTD., priority 2016, dated 2020):

Assays:
LNCaP cells = assay: LNCaP cell activity, CellTiter-Glo live cell detection; conditions: read-out: LNcap cell IC50; 1000 cells per well, incubated 3 days, starting concentration 10 uM
Akt2 = Akt2 (Homo sapiens, UniProt P31751); assay: Akt2 kinase inhibition, LANCE TR-FRET; conditions: read-out: Akt2 IC50; Akt2 2 nM, ATP 360 uM, 90 min at room temperature
Akt3 = Akt3 (Homo sapiens, UniProt Q9Y243); assay: Akt3 kinase inhibition, LANCE TR-FRET; conditions: read-out: Akt3 IC50; Akt3 2 nM, ATP 160 uM, 90 min at room temperature
Akt1 = Akt1 (Homo sapiens, UniProt P31749); assay: Akt1 kinase inhibition, LANCE TR-FRET; conditions: read-out: Akt1 IC50, ATP 36 uM, 90 min at room temperature

N#Cc1cnn2c1-c1cc(C(=O)N[C@H](CN)Cc3cc(F)cc(F)c3)sc1OCC2
IC50 (LNCaP cells): 792 nM | IC50 (Akt2): 856 nM | IC50 (Akt3): 627 nM | IC50 (Akt1): 36 nM
